IC50 data for 7 molecules are collected here from US9371292B2, “Quinazoline derivative, preparation method therefor, intermediate, composition and application thereof” (SHANGHAI PHARMACEUTICALS HOLDINGS CO., LTD., priority 2011, dated 2016).

By UniProt entry, the sequences of proteins in these tests, tags left out. Residues count along the entry.
UniProt P00533, 25-1210: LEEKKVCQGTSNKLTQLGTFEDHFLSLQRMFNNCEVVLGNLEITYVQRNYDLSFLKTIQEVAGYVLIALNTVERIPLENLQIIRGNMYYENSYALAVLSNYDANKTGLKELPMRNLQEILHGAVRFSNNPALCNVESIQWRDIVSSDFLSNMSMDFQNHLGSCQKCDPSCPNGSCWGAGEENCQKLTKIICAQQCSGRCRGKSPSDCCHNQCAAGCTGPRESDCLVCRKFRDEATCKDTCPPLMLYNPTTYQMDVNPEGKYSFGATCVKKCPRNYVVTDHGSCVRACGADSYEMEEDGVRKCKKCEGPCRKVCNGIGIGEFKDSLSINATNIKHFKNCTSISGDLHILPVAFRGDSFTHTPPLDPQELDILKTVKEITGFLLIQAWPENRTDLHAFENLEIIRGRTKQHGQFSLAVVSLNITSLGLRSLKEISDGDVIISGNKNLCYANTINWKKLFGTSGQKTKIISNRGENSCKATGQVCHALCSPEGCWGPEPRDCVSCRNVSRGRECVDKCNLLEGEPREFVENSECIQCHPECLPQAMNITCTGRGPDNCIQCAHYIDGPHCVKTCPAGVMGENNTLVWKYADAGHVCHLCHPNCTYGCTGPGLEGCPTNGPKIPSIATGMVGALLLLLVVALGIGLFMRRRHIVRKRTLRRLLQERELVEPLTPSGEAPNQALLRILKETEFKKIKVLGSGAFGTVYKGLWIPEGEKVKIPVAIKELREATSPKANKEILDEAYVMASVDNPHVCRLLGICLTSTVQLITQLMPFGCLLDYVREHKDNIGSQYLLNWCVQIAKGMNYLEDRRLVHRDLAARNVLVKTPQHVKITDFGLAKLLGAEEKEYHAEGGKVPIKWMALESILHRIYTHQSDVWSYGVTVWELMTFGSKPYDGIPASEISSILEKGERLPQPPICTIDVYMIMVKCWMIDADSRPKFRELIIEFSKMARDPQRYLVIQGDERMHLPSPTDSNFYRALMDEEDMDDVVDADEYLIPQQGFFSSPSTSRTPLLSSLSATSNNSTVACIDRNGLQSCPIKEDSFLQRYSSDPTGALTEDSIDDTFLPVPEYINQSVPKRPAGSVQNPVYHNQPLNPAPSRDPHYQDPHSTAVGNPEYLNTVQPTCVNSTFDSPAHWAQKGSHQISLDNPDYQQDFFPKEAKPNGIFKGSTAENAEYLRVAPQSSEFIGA

Each structure is given as a SMILES string.

One assay relates to A431 cell. Kind of assay: Proliferation inhibition, A431 cells (CellTiter-Glo). Format: cell-based. Conditions: Homo sapiens, A-431, 48 hours. Here is the method:
(§1) This example is to determine the proliferation inhibitory activity against wide type of high expression cell lines A431 of EGFR and mutant cell lines NCI-H1975^L858RT790M, the proliferation inhibitory activity in cell-based level of compound is expressed by IC50. The test method is as follows: both cell lines are purchased from American type culture collection (ATCC). The cells are seeded in a white and opaque 384-well culture plate with a proper concentration (A431: 20000 cells/ml medium; H1975: 15000 cells/ml medium), cultured at 37° C. with 5% CO2 for 24 hrs, a series of medicine with gradient concentration is added, generally 10 concentrations, cultured for another 48 hours under the previous conditions. The assays of the proliferation inhibitory activity against the A431 and H1975 cell of the test compounds are performed by the CellTiter-Glo Luminescent Cell Viability Assay and calculate the proliferation inhibitory activity of compound with different concentrations. CellTiter-Glo Luminescent Cell Viability Assay is purchased from Promega. Fit the data of proliferation inhibitory activity against A431 and H1975 of compounds with different concentrations with 4-parameter equation.
In general terms: ATP-based viability assays read luminescence as a measure of living cells.

Assay [1] concerns NCI-H1975 L858R T790M cell. Briefly: Proliferation inhibition, H1975 cells (CellTiter-Glo). Format: cell-based. Conditions: Homo sapiens, 48 hours. As to the method:
as §1

The target in the next assay is T1, EGFR tyrosine kinase (Homo sapiens, UniProt P00533).
T1 construct: purchased Sigma Aldrich
Briefly: HTRF assay, inhibition of EGFR tyrosine kinase. Format: biochemical. The conditions noted are these: HTRF method. As to the method: The activity of inhibitory against the kinase of the test compound is expressed by IC50. The assays are performed by Homogeneous time-resolved fluorescence (HTRF) method which is as follows: a series of synthesized analogues with gradient concentration are incubated for 5 minutes in enzymatic solution with specific concentration (for EGFR) at room temperature. Then proper amount of substrate and ATP are added into the reaction mixture to start the enzyme reaction. The assays of the specific concentration of compound is measured by Flexstation III of Molecular device company after the stop buffer and detecting liquid are added to the enzyme reaction system and hatch at room temperature for 1 hour. And the activity of inhibitory against the kinase of the test compound with different concentration will be calculated, then according to the 4-parameter equation, fit the inhibitory activity of the test compound with different concentration to get the IC50. EGFR is purchased from Sigma Aldrich. The HTRF KinEASE-TK is purchased from Cisbio Bioassays. ATP is purchased from Sigma Aldrich.

What is called IC50 is the midpoint of a concentration-inhibition curve. With `COc1cc2ncnc(Nc3ccc(F)c(Cl)c3)c2cc1NC(=O)/C(F)=C/CN(C)C` [Compound 2-1, (Z)—N-(4-((3-chloro-4-fluorophenyl)amino)-7-methoxyquinazolin-6-yl)-4-(dimethylamino)-2-fluorobut-2-enamide], the IC50 in the assay with A431 cell was found to be 550 nM; in assay [1], 410 nM.
For `COc1cc2ncnc(Nc3ccc(F)c(Cl)c3)c2cc1NC(=O)/C(F)=C/CN1CCCCC1` [Compound 8-1, (Z)—N-(4-((3-chloro-4-fluorophenyl)amino)-7-methoxyquinazolin-6-yl)-2-fluoro-4-(piperidin-1-yl)but-2-enamide], in the assay with A431 cell, the IC50 turned out to be 680 nM. This lies in the sub-micromolar range.
`COc1cc2ncnc(Nc3ccc(F)c(Cl)c3)c2cc1NC(=O)/C(F)=C\CN1CCCCC1` [Compound 8-2, (E)-N-(4-((3-chloro-4-fluorophenyl)amino)-7-methoxyquinazolin-6-yl)-2-fluoro-4-(piperidin-1-yl)but-2-enamide]: in assay [1], 760 nM corresponded to half-maximal inhibition (IC50).
For the molecule `CCOc1cc2ncnc(Nc3ccc(OCc4ccccn4)c(Cl)c3)c2cc1NC(=O)/C(F)=C/CN(C)C` [Compound 19-1, (Z)-N-(4-((3-chloro-4-(pyridin-2-ylmethoxy)phenyl)amino)-7-ethoxyquinazolin-6-yl)-4-(dimethylamino)-2-fluorobut-2-enamide], the figures for the IC50 (with A431 cell; in assay [1]) were 980 nM and 640 nM, respectively.
As for `CCOc1cc2ncnc(Nc3ccc(OCc4ccccn4)c(Cl)c3)c2cc1NC(=O)/C(F)=C\CN(C)C` [Compound 19-2, (E)-N-(4-((3-chloro-4-(pyridin-2-ylmethoxy)phenyl)amino)-7-ethoxyquinazolin-6-yl)-4-(dimethylamino)-2-fluorobut-2-enamide], the IC50 with A431 cell stood at 980 nM.
With `O=C(Nc1cc2c(Nc3ccc(F)c(Cl)c3)ncnc2cc1O[C@H]1CCOC1)/C(F)=C/CN1CCOCC1` [Compound 20-1, (S,Z)-N-(4-((3-chloro-4-fluorophenyl)amino)-7-((tetrahydrofuran-3-yl)oxy)quinazolin-6-yl)-2-fluoro-4-morpholinobut-2-enamide], the IC50 on EGFR tyrosine kinase worked out at 1 nM. This lies in the single-digit nanomolar range.
Molecule `O=C(Nc1cc2c(Nc3ccc(F)c(Cl)c3)ncnc2cc1O[C@H]1CCOC1)/C(F)=C\CN1CCOCC1` [Compound 20-2, (S,E)-N-(4-((3-chloro-4-fluorophenyl)amino)-7-((tetrahydrofuran-3-yl)oxy)quinazolin-6-yl)-2-fluoro-4-morpholinobut-2-enamide] returned an IC50 against EGFR tyrosine kinase of 0.26 nM.
